According to PMC4684357, “Comparative Evaluation of the Antimicrobial Activity of Different Antimicrobial Peptides against a Range of Pathogenic Bacteria” (PLoS ONE, 2015):

Assays:
[1] = test system: E. coli ATCC25922; format: cell-based, Escherichia coli; conditions: E. coli ATCC25922 wild-type (Table 8, LPS series); CLSI; triplicates
Source text: The Yersinia ruckeri strain was kindly provided by Prof. Kurt Buchmann, University of Copenhagen, Faculty of Health and Medical Sciences, and the Flavobacterium psychrophilum strain was kindly provided by Prof. Inger Dalsgaard, DTU, Denmark. BW25113 is the Escherichia coli wild-type strain, a derivative of the F^-,λ^- E. coli K12 strain BD792 which was used in generating the KEIO collection. E. coli ATCC25922 is a clinical isolate, serotype O6 and is often used as control strain in antimicrobial susceptibility testing. All strains were grown in Mueller-Hinton-II medium, except L. monocytogenes which was grown in BHI medium and F. psychrophilum which was grown in TYES medium (Tryptone yeast extract plus salts). […]
(§1) Briefly, liquid Mueller-Hinton-II medium containing increasing concentrations of AMPs is inoculated with a defined number of cells (approx. 10^5 CFUs/ml) in 96-well microtiter plates (polypropylene), whereas each plate also includes a positive growth control and a negative control (sterile control). After incubation, the MIC is determined by the lowest concentration showing no visible growth. […]
All the MIC measurements were carried out in duplicate. The MIC of the reference antibiotics was determined by the use of Sensititre panels (Trek Diagnostic Systems Ltd, East Grinstead, UK).

[2] = test system: E. coli ATCC25922; conditions: test strain E. coli ATCC25922, average of five independent experiments
Procedure: as §1, with “The minimum inhibitory concentrations (MICs) of the AMPs were measured in 96-well microtiter plates according to the Clinical and Laboratory Standards Institute (CLSI, formerly National Committee for Clinical Laboratory Standards [NCCLS]). Briefly,” for “Briefly,”, “growth. All plates were incubated for 18–20 hours, except the F. psychrophilum plates which were incubated for 72 hours.” for “growth.”

Measured: Antimicrobial Activity MIC

CC[C@H](C)[C@H](NC(=O)CN)C(=O)NCC(=O)N[C@@H](C)C(=O)N[C@H](C(=O)N[C@@H](CC(C)C)C(=O)N[C@@H](CCCCN)C(=O)N[C@H](C(=O)N[C@@H](CC(C)C)C(=O)N[C@H](C(=O)N[C@H](C(=O)NCC(=O)N[C@@H](CC(C)C)C(=O)N1CCC[C@H]1C(=O)N[C@@H](C)C(=O)N[C@@H](CC(C)C)C(=O)N[C@H](C(=O)N[C@@H](CO)C(=O)N[C@@H](Cc1c[nH]c2ccccc12)C(=O)N[C@H](C(=O)N[C@@H](CCCCN)C(=O)N[C@@H](CCCNC(=N)N)C(=O)N[C@@H](CCCCN)C(=O)N[C@@H](CCCNC(=N)N)C(=O)N[C@@H](CCC(N)=O)C(=O)N[C@@H](CCC(N)=O)C(N)=O)[C@@H](C)CC)[C@@H](C)CC)[C@@H](C)O)[C@@H](C)O)C(C)C)C(C)C [Melittin, reference compound]
16 µg/mL: [1] | [2]; 70°C, incubation 0 min (untreated control) | [2]; 90°C, incubation 0 min (untreated control) | [2]; AMP heated at 70°C for 5 min | [2]; AMP heated at 70°C for 15 min | [2]; AMP heated at 70°C for 30 min | [2]; AMP heated at 90°C for 5 min | [2]; AMP heated at 90°C for 15 min | [2]; AMP heated at 90°C for 30 min

Read-outs that look alike come from different tables or passages of the source.
